Data reported in US20250387443A1, “ENHANCING ONCOLYTIC V[…] A COMBINATION OF NUCLEAR EXPORT INHIBITOR AND MYXOMA VIRUS […] DEATH PATHWAYS” (Arizona Board of Regents on behalf of Arizona State …, priority 2024, published 2025).

Tested on: CT26 (Mouse colon adenocarcinoma) xenograft
Experiment: CT26 tumor model in immunocompetent mice
Settings: BALB/c mice with CT26 tumors; […] IT virus injections

O=C(/C=C\n1cnc(-c2cc(C(F)(F)F)cc(C(F)(F)F)c2)n1)NNc1cnccn1 [selinexor]
survival: enhanced survival
